For 3 compounds, IC50 results are on record in US11926614B2, “1,2,4-triazole derivatives as tankyrase inhibitors” (priority 2018, dated 2024).

Chains of the proteins cited; added tags and fusions are not shown. Lines headed by an entry give the natural chain unless they say otherwise; changes in a name come on top.
UniProt Q9H2K2: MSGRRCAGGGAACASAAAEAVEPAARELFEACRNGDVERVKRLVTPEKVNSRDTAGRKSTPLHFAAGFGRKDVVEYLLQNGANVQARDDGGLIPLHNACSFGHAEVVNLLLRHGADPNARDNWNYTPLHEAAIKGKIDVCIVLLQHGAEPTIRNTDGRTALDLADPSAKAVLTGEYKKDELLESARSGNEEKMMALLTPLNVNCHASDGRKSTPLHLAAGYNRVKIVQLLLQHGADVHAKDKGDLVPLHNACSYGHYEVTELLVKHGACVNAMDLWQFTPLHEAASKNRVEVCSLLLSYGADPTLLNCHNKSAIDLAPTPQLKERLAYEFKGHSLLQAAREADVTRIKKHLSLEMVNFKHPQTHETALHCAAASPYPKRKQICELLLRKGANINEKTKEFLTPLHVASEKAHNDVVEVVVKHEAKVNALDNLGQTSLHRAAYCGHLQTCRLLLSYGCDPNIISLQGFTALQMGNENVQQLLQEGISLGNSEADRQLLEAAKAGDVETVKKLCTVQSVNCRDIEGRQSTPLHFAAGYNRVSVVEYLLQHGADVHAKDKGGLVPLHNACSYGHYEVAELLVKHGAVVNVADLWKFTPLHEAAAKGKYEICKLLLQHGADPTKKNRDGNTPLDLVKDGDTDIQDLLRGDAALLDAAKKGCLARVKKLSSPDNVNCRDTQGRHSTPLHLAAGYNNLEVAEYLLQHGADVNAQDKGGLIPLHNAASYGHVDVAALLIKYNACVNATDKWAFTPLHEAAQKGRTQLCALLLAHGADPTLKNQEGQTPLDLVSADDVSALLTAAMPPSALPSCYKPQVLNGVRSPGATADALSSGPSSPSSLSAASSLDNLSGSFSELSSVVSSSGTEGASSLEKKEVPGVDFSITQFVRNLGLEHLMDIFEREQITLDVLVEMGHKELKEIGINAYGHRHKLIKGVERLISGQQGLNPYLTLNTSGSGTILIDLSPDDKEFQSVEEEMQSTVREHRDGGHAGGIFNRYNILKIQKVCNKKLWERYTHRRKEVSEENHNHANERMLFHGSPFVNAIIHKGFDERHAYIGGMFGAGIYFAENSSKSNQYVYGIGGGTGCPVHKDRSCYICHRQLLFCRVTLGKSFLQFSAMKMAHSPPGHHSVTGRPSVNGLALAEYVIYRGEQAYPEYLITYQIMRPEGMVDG

In general, IC50 refers to the point on the concentration scale where inhibition reaches its midpoint.

The target of this experiment is TNKS2 (Homo sapiens (Human), UniProt Q9H2K2). Briefly: Biochemical IC50 TNKS2. The source says: XLfit (idbs) was used to determine the IC50-values in inhibition experiments. The following formula was chosen to fit the data points (Langmuir Binding Isotherm): fit=((A+(B*x))+4(C−B)*(1−exp((−1*D)*x)))/D)), res=(y−fit)
Setting [1] is: read-out: Biochemical IC50 TNKS2.

Where two headings read alike, the source gives them in different places.

Regarding `CS(=O)(=O)c1ccc(-c2nnc([C@H]3C[C@H](NC(=O)c4cccc5cccnc45)C3)n2-c2ccccc2F)nc1` [Example 48], the IC50 under setting [1] came out at 1.3 nM.

Consider `CCOc1ccc(-c2nnc([C@H]3C[C@H](NC(=O)c4ccccn4)C3)n2-c2ccccc2F)nc1` [Example 54, N-((1S,3r)-3-(5-(5-ethoxypyridin-2-yl)-4-(2-fluorophenyl)-4H-1,2,4-triazol-3-yl)cyclobutyl)picolinamide], for which the IC50 under setting [1] came to 7 nM.

Compound `[2H]C([2H])([2H])C([2H])([2H])Oc1ccc(-c2nnc([C@H]3C[C@H](NC(=O)c4ccccn4)C3)n2-c2ccccc2F)nc1` [Example 93, N-((1S,3r)-3-(5-(5-(ethoxy-d5)pyridin-2-yl)-4-(2-fluorophenyl)-4H-1,2,4-triazol-3-yl)cyclobutyl)picolinamide] registered an IC50 of 6.8 nM.
